Tests used:
Conditions in all cases: equilibrium dissociation constant, class symbols
RIP3 = target: T1, RIP3 (Homo sapiens, UniProt Q9Y572); test: KINOMEscan binding assay, RIP3
T1 construct: purchased DiscoverX (KINOMEscan service); host or cells: E. coli BL21-derived (T7 phage) or HEK293

Amino acid sequences for entries named in this document (tags omitted). A change or cut given only in a name is not applied to a line headed by its entry.
UniProt Q9Y572: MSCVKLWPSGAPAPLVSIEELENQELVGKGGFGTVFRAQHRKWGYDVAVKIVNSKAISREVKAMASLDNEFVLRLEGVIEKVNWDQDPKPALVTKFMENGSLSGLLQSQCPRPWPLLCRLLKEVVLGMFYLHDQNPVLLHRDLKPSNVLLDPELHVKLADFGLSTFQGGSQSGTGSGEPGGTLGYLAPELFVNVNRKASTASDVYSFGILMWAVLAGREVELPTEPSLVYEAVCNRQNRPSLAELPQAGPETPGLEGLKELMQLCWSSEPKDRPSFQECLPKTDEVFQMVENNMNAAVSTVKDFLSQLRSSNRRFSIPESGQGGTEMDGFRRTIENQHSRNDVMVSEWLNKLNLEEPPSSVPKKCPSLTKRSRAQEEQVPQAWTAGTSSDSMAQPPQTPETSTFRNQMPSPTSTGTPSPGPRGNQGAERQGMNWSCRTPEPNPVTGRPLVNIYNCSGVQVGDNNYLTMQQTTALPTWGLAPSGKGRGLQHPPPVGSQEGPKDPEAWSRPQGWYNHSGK

RIP1 = target: T2, RIP1 (Homo sapiens, UniProt Q13546); test: KINOMEscan binding assay, RIP1
T2 construct: purchased DiscoverX (KINOMEscan service); host or cells: E. coli BL21-derived (T7 phage) or HEK293
T2 sequence (Q13546 1-671): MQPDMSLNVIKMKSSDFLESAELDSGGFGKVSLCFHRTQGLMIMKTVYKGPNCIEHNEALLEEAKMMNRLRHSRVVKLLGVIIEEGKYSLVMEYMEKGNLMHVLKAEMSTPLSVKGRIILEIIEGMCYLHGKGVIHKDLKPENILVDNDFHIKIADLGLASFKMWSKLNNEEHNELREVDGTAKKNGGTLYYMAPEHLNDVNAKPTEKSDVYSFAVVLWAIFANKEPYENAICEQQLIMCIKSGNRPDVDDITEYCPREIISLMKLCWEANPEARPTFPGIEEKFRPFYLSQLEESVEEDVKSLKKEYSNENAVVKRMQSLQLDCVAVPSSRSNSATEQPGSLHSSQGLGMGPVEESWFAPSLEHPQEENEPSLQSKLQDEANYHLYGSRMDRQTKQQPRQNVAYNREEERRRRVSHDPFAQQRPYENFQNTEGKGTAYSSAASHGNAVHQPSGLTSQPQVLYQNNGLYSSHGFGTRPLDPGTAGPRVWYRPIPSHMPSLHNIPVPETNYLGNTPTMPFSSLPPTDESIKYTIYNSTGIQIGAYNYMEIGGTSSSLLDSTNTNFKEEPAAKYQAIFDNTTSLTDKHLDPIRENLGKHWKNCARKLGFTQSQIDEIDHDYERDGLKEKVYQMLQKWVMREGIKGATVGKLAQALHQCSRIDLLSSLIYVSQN

MLKL (full length) = target: T3, MLKL (full length) (Homo sapiens, UniProt Q8NB16); test: KINOMEscan binding assay, MLKL
T3 construct: purchased DiscoverX (KINOMEscan service); host or cells: E. coli BL21-derived (T7 phage) or HEK293
T3 sequence (Q8NB16 1-471): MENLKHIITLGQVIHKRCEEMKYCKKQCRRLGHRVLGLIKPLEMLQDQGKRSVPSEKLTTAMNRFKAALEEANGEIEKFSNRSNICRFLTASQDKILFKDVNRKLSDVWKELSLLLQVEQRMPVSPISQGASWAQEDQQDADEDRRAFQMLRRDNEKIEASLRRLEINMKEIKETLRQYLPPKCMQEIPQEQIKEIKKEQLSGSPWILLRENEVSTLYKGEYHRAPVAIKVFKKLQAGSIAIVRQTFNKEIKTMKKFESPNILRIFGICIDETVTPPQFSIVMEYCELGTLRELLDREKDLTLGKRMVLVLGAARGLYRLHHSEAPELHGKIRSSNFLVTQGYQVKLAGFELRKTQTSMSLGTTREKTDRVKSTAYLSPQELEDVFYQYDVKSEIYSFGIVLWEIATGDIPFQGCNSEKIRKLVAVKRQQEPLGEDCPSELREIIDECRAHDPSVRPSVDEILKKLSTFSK

SMILES | Kd (RIP3) [µM] | Kd (RIP1) [µM] | Kd (MLKL (full length)) [µM]
CCS(=O)(=O)Nc1ccc(-c2n[nH]c(Nc3cnccn3)c2C(N)=O)c(OC)c1 [Compound 209, 3-(4-(ethylsulfonamido)-2-methoxyphenyl)-5-(pyrazin-2-ylamino)-1H-pyrazole-4-carboxamide] | > 30 | > 30 | 0.01 to 1
CCS(=O)(=O)Nc1ccc(-c2n[nH]c(Nc3cnccn3)c2C(N)=O)cc1OCCc1ccccc1F [Compound 211, 3-(4-(ethylsulfonamido)-3-(2-fluorophenethoxy)phenyl)-5-(pyrazin-2-ylamino)-1H-pyrazole-4-carboxamide] | > 30 | > 30 | < 0.01
CCS(=O)(=O)Nc1ccc(-c2n[nH]c(Nc3cnccn3)c2C(N)=O)cc1OCc1cccc(OC(F)(F)F)c1 [Compound 214, 3-(4-(ethylsulfonamido)-3-((3-(trifluoromethoxy)benzyl)oxy)phenyl)-5-(pyrazin-2-ylamino)-1H-pyrazole-4-carboxamide] | > 30 | > 30 | 0.01 to 1
CCS(=O)(=O)Nc1ccc(-c2n[nH]c(Nc3cnccn3)c2C(N)=O)cc1OCc1ccc(C(F)(F)F)cc1 [Compound 216, 3-(4-(ethylsulfonamido)-3-((4-(trifluoromethyl)benzyl)oxy)phenyl)-5-(pyrazin-2-ylamino)-1H-pyrazole-4-carboxamide] | > 30 | > 30 | 0.01 to 1
CCS(=O)(=O)Nc1ccc(-c2c(C(N)=O)c(Nc3cnccn3)nn2C)cc1 [Compound 222, 5-(4-(ethylsulfonamido)phenyl)-1-methyl-3-(pyrazin-2-ylamino)-1H-pyrazole-4-carboxamide] | > 30 | > 30 | < 0.01
NC(=O)c1c(-c2ccc(NS(=O)(=O)CC(F)(F)F)c(OCc3ccc(F)c(Cl)c3)c2)n[nH]c1Nc1cnccn1 [Compound 225, 3-{3-[(3-chloro-4-fluorophenyl)methoxy]-4-(2,2,2-trifluoroethane-sulfonamido)phenyl}-5-[(pyrazin-2-yl)amino]-1H-pyrazole-4-carboxamide] | > 30 | > 30 | < 0.01
NC(=O)c1c(-c2ccc(NS(=O)(=O)CC(F)(F)F)c(OCc3ccc(F)cn3)c2)n[nH]c1Nc1cnccn1 [Compound 231, 3-(3-((5-fluoropyridin-2-yl)methoxy)-4-((2,2,2-trifluoroethyl)sulfonamido)phenyl)-5-(pyrazin-2-ylamino)-1H-pyrazole-4-carboxamide] | > 30 | > 30 | < 0.01
NC(=O)c1c(-c2ccc(NS(=O)(=O)CC(F)(F)F)c(OCc3ccc(F)cc3)c2)n[nH]c1Nc1cnc(C(F)(F)F)cn1 [Compound 238, 3-{3-[(4-fluorophenyl)methoxy]-4-(2,2,2-trifluoroethanesulfonamido)phenyl}-5-{[5-(trifluoromethyl)pyrazin-2-yl]amino}-1H-pyrazole-4-carboxamide] | > 30 | > 30 | < 0.01
CCS(=O)(=O)Nc1ccc(-c2n[nH]c(Nc3ccccn3)c2C(N)=O)cc1OCc1ccc(F)cn1 [Compound 241, 3-{4-ethanesulfonamido-3-[(5-fluoropyridin-2-yl)methoxy]phenyl}-5-[(pyridin-2-yl)amino]-1H-pyrazole-4-carboxamide] | > 30 | > 30 | < 0.01
CCS(=O)(=O)Nc1ccc(-c2n[nH]c(Nc3cnccn3)c2C(N)=O)cc1OCc1ccc(Cl)cn1 [Compound 242, 3-{3-[(5-chloropyridin-2-yl)methoxy]-4-ethanesulfonamidophenyl}-5-[(pyrazin-2-yl)amino]-1H-pyrazole-4-carboxamide] | > 30 | > 30 | < 0.01
NC(=O)c1c(-c2ccc(NS(=O)(=O)C(F)F)c(OCc3ccc(F)cc3)c2)n[nH]c1Nc1cnc(C(F)(F)F)cn1 [Compound 246, 3-[4-(difluoromethanesulfonamido)-3-[(4-fluorophenyl)methoxy]phenyl]-5-{[5-(trifluoromethyl)pyrazin-2-yl]amino}-1H-pyrazole-4-carboxamide] | > 30 | > 30 | < 0.01
CCS(=O)(=O)Nc1ccc(-c2n[nH]c(Nc3cnccn3)c2C(N)=O)cc1OC1(c2ccc(F)cc2)CC1 [Compound 248, 3-{4-ethanesulfonamido-3-[1-(4-fluorophenyl)cyclopropoxy]phenyl}-5-[(pyrazinyl)amino]-1H-pyrazole-4-carboxamide] | > 30 | > 30 | < 0.01
C[C@H](Oc1cc(-c2n[nH]c(Nc3cnccn3)c2C(N)=O)ccc1NS(=O)(=O)C(F)F)c1ccc(Cl)cc1 [Compound 252, 3-{3-[(1S)-1-(4-chlorophenyl)ethoxy]-4-(difluoromethanesulfonamido)phenyl}-5-[(pyrazin-2-yl)amino]-1H-pyrazole-4-carboxamide] | > 30 | > 30 | < 0.01
C[C@H](Oc1cc(-c2c(C(N)=O)c(Nc3cnccn3)nn2C)ccc1NS(=O)(=O)C(F)F)c1ccc(F)cc1 [Compound 253, 5-[4-(difluoromethanesulfonamido)-3-[(1S)-1-(4-fluorophenyl)ethoxy]phenyl]-1-methyl-3-[(pyrazin-2-yl)amino]-1H-pyrazole-4-carboxamide] | > 30 | > 30 | < 0.01

Now from value to compound:

Kd (RIP3) [µM] | Kd (RIP1) [µM] | Kd (MLKL (full length)) [µM] | SMILES
> 30 | > 30 | 0.01 to 1 | C[C@@H](Oc1cc(NS(=O)(=O)CC(F)(F)F)ccc1-c1n[nH]c(Nc2cnccn2)c1C(N)=O)c1ccc(F)cc1 [Compound 254, 3-{2-[(1R)-1-(4-fluorophenyl)ethoxy]-4-(2,2,2-trifluoroethanesulfonamido)phenyl}-5-[(pyrazin-2-yl)amino]-1H-pyrazole-4-carboxamide]
> 30 | > 30 | < 0.01 | C[C@H](Oc1cc(-c2n[nH]c(Nc3cnccn3)c2C(N)=O)ccc1NS(=O)(=O)CC(F)(F)F)c1cccc(Cl)c1 [Compound 256, 3-{3-[(1S)-1-(3-chlorophenyl)ethoxy]-4-(2,2,2-trifluoroethane-sulfonamido)phenyl}-5-[(pyrazin-2-yl)amino]-1H-pyrazole-4-carboxamide]
> 30 | > 30 | < 0.01 | N#Cc1cccc(Nc2[nH]nc(-c3ccc(NS(=O)(=O)C(F)F)cc3)c2C(N)=O)n1 [Compound 258, 5-[(6-cyanopyridin-2-yl)amino]-3-[4-(difluoromethanesulfonamido)phenyl]-1H-pyrazole-4-carboxamide]
> 30 | > 30 | < 0.01 | C[C@H](Oc1cc(-c2n[nH]c(Nc3ccccn3)c2C(N)=O)ccc1NS(=O)(=O)C(F)F)c1ccc(F)cc1 [Compound 260, 3-[4-(difluoromethanesulfonamido)-3-[(1S)-1-(4-fluorophenyl)ethoxy]phenyl]-5-[(pyridin-2-yl)amino]-1H-pyrazole-4-carboxamide]
> 30 | > 30 | < 0.01 | C[C@H](Oc1cc(-c2n[nH]c(Nc3cnccn3)c2C(N)=O)ccc1NS(=O)(=O)CC(F)(F)F)c1cccc(F)c1 [Compound 265]
> 30 | > 30 | < 0.01 | NC(=O)c1c(-c2ccc(NS(=O)(=O)CC(F)(F)F)cc2)n[nH]c1Nc1ccccn1 [Compound 268, 5-[(pyridin-2-yl)amino]-3-[4-(2,2,2-trifluoroethanesulfonamido)phenyl]-1H-pyrazole-4-carboxamide]
> 30 | > 30 | < 0.01 | Cc1nn(C)cc1Nc1[nH]nc(-c2ccc(NS(=O)(=O)C(F)F)c(O[C@@H](C)c3ccc(F)cc3)c2)c1C(N)=O [Compound 270, (S)-3-(4-((difluoromethyl)sulfonamido)-3-(1-(4-fluorophenyl)ethoxy)phenyl)-5-((1,3-dimethyl-1H-pyrazol-4-yl)amino)-1H-pyrazole-4-carboxamide]
> 30 | > 30 | < 0.01 | C[C@@H](Oc1cc(-c2n[nH]c(Nc3cnccn3)c2C(N)=O)ccc1NS(=O)(=O)C(F)F)c1ccc(F)cc1 [Compound 271, (R)-3-(4-((difluoromethyl)sulfonamido)-3-(1-(4-fluorophenyl)ethoxy)phenyl)-5-(pyrazin-2-ylamino)-1H-pyrazole-4-carboxamide]
